# Measurements from the NIST ThermoML archive (doi:10.1016/j.jct.2006.09.015).
# What was measured:
# [1] = relative permittivity at various frequencies (dimensionless); settings: 101.3 kPa, Liquid, Frequency=3 MHz, Bridge type OH-301 made in Radelcis, Hungary
# [2] = relative permittivity at various frequencies (dimensionless); xn = mol fraction of the nth substance listed; settings: 101.3 kPa, Liquid, Frequency=3 MHz, Bridge type OH-301 made in Radelcis, Hungary
smiles,measurement,setting,value
OCCOCCOCCOCCO [tetraethylene glycol],relative permittivity,[1]; 293.15 K,20.44 ± 0.04
same,relative permittivity,[1]; 298.15 K,19.91 ± 0.04
same,relative permittivity,[1]; 303.15 K,19.35 ± 0.04
OCCOCCOCCOCCO [tetraethylene glycol] + COCCO,relative permittivity,"[2]; 293.15 K, x2 = 0",20.44 ± 0.04
same,relative permittivity,"[2]; 293.15 K, x2 = 0.0559",20.56 ± 0.04
same,relative permittivity,"[2]; 293.15 K, x2 = 0.1009",20.66 ± 0.04
same,relative permittivity,"[2]; 293.15 K, x2 = 0.2001",20.92 ± 0.04
same,relative permittivity,"[2]; 293.15 K, x2 = 0.3",21.15 ± 0.04
same,relative permittivity,"[2]; 293.15 K, x2 = 0.4",21.38 ± 0.04
same,relative permittivity,"[2]; 293.15 K, x2 = 0.5004",21.63 ± 0.04
same,relative permittivity,"[2]; 293.15 K, x2 = 0.5973",21.86 ± 0.04
same,relative permittivity,"[2]; 293.15 K, x2 = 0.7",22 ± 0.04
same,relative permittivity,"[2]; 293.15 K, x2 = 0.7999",21.63 ± 0.04
same,relative permittivity,"[2]; 293.15 K, x2 = 0.9001",20.44 ± 0.04
same,relative permittivity,"[2]; 293.15 K, x2 = 0.95",19.17 ± 0.04
same,relative permittivity,"[2]; 298.15 K, x2 = 0",19.91 ± 0.04
same,relative permittivity,"[2]; 298.15 K, x2 = 0.0559",19.99 ± 0.04
same,relative permittivity,"[2]; 298.15 K, x2 = 0.1009",20.09 ± 0.04
same,relative permittivity,"[2]; 298.15 K, x2 = 0.2001",20.34 ± 0.04
same,relative permittivity,"[2]; 298.15 K, x2 = 0.3",20.58 ± 0.04
same,relative permittivity,"[2]; 298.15 K, x2 = 0.4",20.78 ± 0.04
same,relative permittivity,"[2]; 298.15 K, x2 = 0.5004",20.97 ± 0.04
same,relative permittivity,"[2]; 298.15 K, x2 = 0.5973",21.1 ± 0.04
same,relative permittivity,"[2]; 298.15 K, x2 = 0.7",21.12 ± 0.04
same,relative permittivity,"[2]; 298.15 K, x2 = 0.7999",20.71 ± 0.04
same,relative permittivity,"[2]; 298.15 K, x2 = 0.9001",19.57 ± 0.04
same,relative permittivity,"[2]; 298.15 K, x2 = 0.95",18.49 ± 0.04
same,relative permittivity,"[2]; 303.15 K, x2 = 0",19.35 ± 0.04
same,relative permittivity,"[2]; 303.15 K, x2 = 0.0559",19.43 ± 0.04
same,relative permittivity,"[2]; 303.15 K, x2 = 0.1009",19.52 ± 0.04
same,relative permittivity,"[2]; 303.15 K, x2 = 0.2001",19.73 ± 0.04
same,relative permittivity,"[2]; 303.15 K, x2 = 0.3",19.92 ± 0.04
same,relative permittivity,"[2]; 303.15 K, x2 = 0.4",20.15 ± 0.04
same,relative permittivity,"[2]; 303.15 K, x2 = 0.5004",20.4 ± 0.04
same,relative permittivity,"[2]; 303.15 K, x2 = 0.5973",20.56 ± 0.04
same,relative permittivity,"[2]; 303.15 K, x2 = 0.7",20.49 ± 0.04
same,relative permittivity,"[2]; 303.15 K, x2 = 0.7999",20.02 ± 0.04
same,relative permittivity,"[2]; 303.15 K, x2 = 0.9001",18.81 ± 0.04
same,relative permittivity,"[2]; 303.15 K, x2 = 0.95",17.76 ± 0.04

# ± gives the expanded uncertainty stated by the source.
